The chains behind the UniProt entries cited, without tags or fusion partners. Residues count along the entry.
UniProt A0A1B6PFV1, 2-377: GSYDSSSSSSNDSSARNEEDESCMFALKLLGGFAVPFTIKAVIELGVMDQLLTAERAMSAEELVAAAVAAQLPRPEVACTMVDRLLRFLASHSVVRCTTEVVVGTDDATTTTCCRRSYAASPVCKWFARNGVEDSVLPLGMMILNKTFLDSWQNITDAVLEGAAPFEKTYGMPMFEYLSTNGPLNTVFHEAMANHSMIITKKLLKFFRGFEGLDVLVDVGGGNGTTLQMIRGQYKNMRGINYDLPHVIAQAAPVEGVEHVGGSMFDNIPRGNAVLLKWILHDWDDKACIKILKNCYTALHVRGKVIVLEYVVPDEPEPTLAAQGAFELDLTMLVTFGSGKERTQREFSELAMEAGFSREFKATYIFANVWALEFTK

In PMC10261104, “Regioselective stilbene O-methylations in Saccharinae grasses” (Nature Communications, 2023):

Biological target: SbSOMT (stilbene O-methyltransferase) (Sorghum bicolor, UniProt A0A1B6PFV1)
Assay: biochemical
Parameters: gene SORBI_3007G059100

## Oc1cc(O)cc(/C=C/c2ccc(O)c(O)c2)c1 [piceatannol]
  pKd: 4.43

pKd: −log10 of the molar value.
